For assay [1], the target named is empty disulfide-stabilized HLA-A*02:01(Y84C/A139C) complex of heavy chain and beta-2 microglobulin (human). The assay can be described thus: nanoscale differential scanning fluorimetry (nDSF, thermal stabilisation).
Assay [2] shares this target. The assay can be described thus: native MS.
Assay [3] deals with empty disulfide-stabilized HLA-A*02:01(Y84C/A139C) in complex with beta-2 microglobulin (human). The assay can be described thus: isothermal analysis of nanoscale differential scanning fluorimetry (iDSF). Background: DSF heats the sample and reads unfolding from a dye or from intrinsic fluorescence.
The target is the same in assay [4]. Briefly: native MS.

“Ac-NV9, NV9 with an acetylated N-terminus (peptide)” gave a ∆Tm in assay [1] of 7.5 K. In assay [2], the percent of dsA2 as dsA2/pep (AUC) stood at 57%.

In the case of “NV9 ([…]), A2 epitope from human cytomegalovirus pp65 (peptide)”, the figures for the Kd in assay [3] and in assay [4] were 40 nM and 60 nM, respectively.

Consider “NV9-NH2, NV9 with amidated C-terminus (peptide)”, for which the Kd in assay [3] was found to be 1 nM; in assay [4], 10000 nM.

Usually Kd stands for the concentration at which binding is half-saturated. Low readings indicate tighter binding, high ones weaker binding.

These data come from article PMC9127112, “Opening opportunities for Kd determination and screening of MHC peptide complexes” (Communications Biology, 2022).
